Source: patent publication US20240261365A1, “POLYPEPTIDE ALBUMIN NANOPARTICLE, PREPARATION METHOD THEREFOR, AND APPLICATION THEREOF” (SUZHOU INSTITUTE OF NANO-TECH AND NANO-BIONICS (SINANO) , …, priority 2020, published 2024)

Test system: 4T1 subcutaneous tumor
Assay: tumor growth, 4T1 mouse subcutaneous tumor model
Format: in vivo, BALB/c mice
Settings: 100 μL of 500 μM, tail vein, 4 consecutive days
Experimental: 10^6 4T1 cells were implanted subcutaneously into the backs of adult female BALB/c mice at the age of six weeks to construct a mouse subcutaneous tumor model. When the volume of tumor reached 50-60 mm^3, the mice were divided into 4 groups, five mice in each group, and 100 μL of PBS and HSA, Ir-cR8 and Ir-cR8-HSA nanoparticles (500 μM) were injected into tail veins for 4 consecutive days, separately. The tumor growth of each mouse was observed.

HSA: human serum albumin, carrier protein injected alone as a control group
tumor inhibitory effect: cannot effectively inhibit the tumor growth
